Measurements reported in PubChem BioAssay AID2227 (Johns Hopkins Ion Channel Center, 2009).
The entries are a selection whose mix differs from that of the whole data set. Activity calls are given as the source filed them.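 Rule for the calls: active = B-score of calcium response area above 5 SD of library B-scores, with initial fluorescence ratio within 5 SD of library; inactive = the rest.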

Protein sequences, listed by entry. Tags and fused reporters are not part of them.
UniProt Q9QUQ5, whole entry: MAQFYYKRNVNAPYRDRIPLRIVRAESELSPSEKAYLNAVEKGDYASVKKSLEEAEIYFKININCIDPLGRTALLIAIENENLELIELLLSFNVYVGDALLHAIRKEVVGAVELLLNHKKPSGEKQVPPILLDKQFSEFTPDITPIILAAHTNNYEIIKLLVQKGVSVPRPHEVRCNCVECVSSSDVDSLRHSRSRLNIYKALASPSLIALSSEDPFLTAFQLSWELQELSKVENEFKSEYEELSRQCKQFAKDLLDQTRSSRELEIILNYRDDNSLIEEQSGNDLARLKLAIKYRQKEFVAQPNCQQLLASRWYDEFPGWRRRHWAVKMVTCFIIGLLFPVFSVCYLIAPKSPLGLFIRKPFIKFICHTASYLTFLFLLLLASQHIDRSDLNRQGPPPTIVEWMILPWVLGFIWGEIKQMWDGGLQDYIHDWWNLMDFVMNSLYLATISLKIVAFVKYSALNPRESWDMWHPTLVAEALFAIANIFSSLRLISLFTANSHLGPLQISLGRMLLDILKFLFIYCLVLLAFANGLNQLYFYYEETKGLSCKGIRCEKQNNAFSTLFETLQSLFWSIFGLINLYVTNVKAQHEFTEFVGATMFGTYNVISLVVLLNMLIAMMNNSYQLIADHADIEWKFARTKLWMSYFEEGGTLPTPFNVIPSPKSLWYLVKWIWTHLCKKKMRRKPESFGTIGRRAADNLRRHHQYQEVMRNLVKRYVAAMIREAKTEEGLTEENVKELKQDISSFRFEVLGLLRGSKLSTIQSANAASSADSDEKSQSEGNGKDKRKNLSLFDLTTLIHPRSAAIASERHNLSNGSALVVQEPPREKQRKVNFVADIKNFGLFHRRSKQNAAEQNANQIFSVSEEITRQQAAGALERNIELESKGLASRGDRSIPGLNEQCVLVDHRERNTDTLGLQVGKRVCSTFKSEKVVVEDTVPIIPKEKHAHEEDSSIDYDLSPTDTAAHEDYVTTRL

The compounds below were run against Short transient receptor potential channel 4 (Mus musculus) (UniProt Q9QUQ5) (assay: positive allosteric modulators of TRPC4, primary screen, cell-based, mouse TRPC4beta, HEK293 mu-opioid, Fluo-4 calcium (AID 2227)). Conditions: DAMGO EC20, Fluo-4 Ca2+ flux, at 10 µM.

| SMILES | outcome |
| --- | --- |
| O=C(NCC1(N2CCCCC2)CCCCC1)c1ccc(F)cc1 | inactive |
| CCOC(=O)N1CCC(Nc2ccc(F)cc2)CC1 | inactive |
| COc1ccc(NC2CCN(CCc3ccccc3)CC2)c(OC)c1 | inactive |
| CCOc1ccc(C)cc1CN(CCCl)CCCl | inactive |
| COc1cc(C(=O)NCC2(N(C)C)CCCCC2)ccc1OC(F)F | inactive |
| CCOC(=O)N1CCC(Nc2cccc(C)c2)CC1 | inactive |
| Cc1ccc(OCC(C)C)c(CN(CCCl)CCCl)c1 | inactive |
| CSc1ccccc1C(=O)NCC1(N2CCCCC2)CCCCC1 | inactive |
| O=C(NCC1(N2CCCCC2)CCCCC1)c1ccc(=O)[nH]c1 | inactive |
| O=C(NCC1(N2CCCCC2)CCCCC1)c1cccs1 | inactive |
| COc1ccc(C(=O)NCC2(N3CCCCC3)CCCCC2)cc1 | inactive |
| COc1ccc(C(=O)NCC2(N3CCCCC3)CCCCC2)c(OC)c1OC | inactive |
| CC(C)(C)OC(=O)N1CCC(N(C(=O)c2ccccc2)c2ccc(F)cc2)CC1 | inactive |
| CCOC(=O)N1CCC(Nc2ccc(OC)cc2)CC1 | inactive |
| O=C(OC1CN2CCC1CC2)C1c2ccccc2Oc2ccccc21 (centres undefined) | inactive |
| N#CC1(Nc2ccccc2)CCN(Cc2ccccc2)CC1 | inactive |
| O=C(NCC1(N2CCOCC2)CCCCC1)c1cc2ccccc2o1 | inactive |

| SMILES | outcome |
| --- | --- |
| O=C(NCC1(N2CCCCC2)CCCCC1)c1ccc(Cl)nc1 | inactive |
| Cc1cc(C)cc(N(C(=O)c2ccccc2)C2CCN(C(=O)OC(C)(C)C)CC2)c1 | inactive |
| COc1cc(OC)c(C(=O)NCC2(N(C)C)CCCCC2)cc1OC | inactive |
| COc1ccc(CN(CCCl)CCCl)cc1Cl | inactive |
| CN(C)c1cccc(C(=O)NCC2(N3CCCCC3)CCCCC2)c1 | inactive |
| CC(C)c1ccc(NC2CCN(C(=O)OC(C)(C)C)CC2)cc1 | inactive |
| CCCOc1ccc(C(=O)NCC2(N(C)C)CCCCC2)cc1OC | inactive |
| CN1CCC(Nc2cccc(F)c2)CC1 | inactive |
| O=C(NCC1(N2CCCCC2)CCCCC1)c1cccc([N+](=O)[O-])c1 | inactive |
| CCN1CCC(Nc2ccc(Cl)cc2)CC1 | inactive |
| N#CC1(Nc2ccccc2)CCN(CCc2ccccc2)CC1 | inactive |
| O=C(NCC1(N2CCCCC2)CCCCC1)c1ccc(OC(F)F)cc1 | inactive |
| COc1ccc(NC2CCN(C(=O)OC(C)(C)C)CC2)cc1 | inactive |
| CN1CCN(CCOC(=O)C(O)(c2ccccc2)c2ccccc2)CC1 | inactive |
| O=C(NCC1(N2CCOCC2)CCCCC1)c1cc(=O)[nH]c2ccccc12 | inactive |
| COc1cc(C(=O)NCC2(N3CCCCC3)CCCCC2)ccc1OC(F)F | inactive |
| O=C(NCC1(N2CCCCC2)CCCCC1)c1cccc(C(F)(F)F)c1 | inactive |
